The text below walks through data of US8389538B2, “Rexinoid compound having alkoxy group” (National University Corporation Okayama University, priority 2007, dated 2013).

pEC50: −log10 of the molar value.

Holding throughout (type): cell-based
Assay [1] deals with Human leukemia cell strain HL-60. Put plainly: HL-60 differentiation induction (NBT reduction method). As to the method:
Human leukemia cell strain HL-60 differentiates into granulocytes (neutrophils) to come to have an ability to express active oxygen. […] A method for measuring differentiation inducibility of cells into granulocytes by using this principle is referred to as NBT reduction method. So, the differentiation inducibility of the synthesized compound was measured by NBT reduction method. Fetal bovine serum (FBS) was added to RPMI-1640 media into 10 v/v % and further antibiotics (penicillin and streptomycin) added, and that was used as a growth medium to culture human leukemia cell strain HL-60. […] Each compound was dissolved in dimethylsulfoxide (DMSO) into 20 mM to prepare a stock solution. NBT was prepared into 0.2 w/v % by using PBS (−) 2 hours before use and incubated at 37° C. TPA was dissolved in ethanol (EtOH) into 2 mg/mL to prepare a stock solution. This TPA solution was prepared into 20 μg/mL by using PBS (−) at the time of use. […] The action of RXR agonist is enhanced by the combined use of that and RAR agonist. […] After four days cultivation, cells were collected by centrifugation (4° C., 1500 rpm, 5 minutes). […] Then, stained cell number and total cell number were counted on a cell counter. Meanwhile, the measurement was conducted three times by counting 200 cells or more at a time and a differentiation inducing rate was calculated from a mean value obtained by averaging them. […]

In a further assay the target is T1, RXRβ (Homo sapiens, UniProt P28702).
T1 construct: expressed in transfected cells; host or cells: COS-1 cells
T1 sequence (P28702 1-533): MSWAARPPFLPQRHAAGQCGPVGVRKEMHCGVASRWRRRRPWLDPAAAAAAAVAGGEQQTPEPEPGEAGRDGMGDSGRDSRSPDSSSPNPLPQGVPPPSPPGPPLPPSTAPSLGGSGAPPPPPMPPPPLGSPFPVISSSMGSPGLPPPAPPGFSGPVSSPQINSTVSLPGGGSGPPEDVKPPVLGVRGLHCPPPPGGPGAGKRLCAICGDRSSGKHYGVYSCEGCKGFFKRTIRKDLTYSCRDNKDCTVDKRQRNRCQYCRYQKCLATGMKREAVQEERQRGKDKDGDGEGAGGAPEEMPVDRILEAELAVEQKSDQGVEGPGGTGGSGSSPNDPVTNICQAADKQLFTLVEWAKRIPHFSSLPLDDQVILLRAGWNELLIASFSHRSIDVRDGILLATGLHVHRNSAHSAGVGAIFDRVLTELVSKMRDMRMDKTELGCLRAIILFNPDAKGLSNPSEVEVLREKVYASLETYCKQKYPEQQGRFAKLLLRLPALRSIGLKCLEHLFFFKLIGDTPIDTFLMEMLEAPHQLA
Put plainly: RXR reporter gene assay (luciferase) in COS-1 cells, RXRβ. (A reporter such as luciferase makes a cellular process visible.)

Another assay addresses T2, RXRγ (Homo sapiens, UniProt P48443).
T2 construct: expressed in transfected cells; host or cells: COS-1 cells
T2 sequence (P48443 1-463): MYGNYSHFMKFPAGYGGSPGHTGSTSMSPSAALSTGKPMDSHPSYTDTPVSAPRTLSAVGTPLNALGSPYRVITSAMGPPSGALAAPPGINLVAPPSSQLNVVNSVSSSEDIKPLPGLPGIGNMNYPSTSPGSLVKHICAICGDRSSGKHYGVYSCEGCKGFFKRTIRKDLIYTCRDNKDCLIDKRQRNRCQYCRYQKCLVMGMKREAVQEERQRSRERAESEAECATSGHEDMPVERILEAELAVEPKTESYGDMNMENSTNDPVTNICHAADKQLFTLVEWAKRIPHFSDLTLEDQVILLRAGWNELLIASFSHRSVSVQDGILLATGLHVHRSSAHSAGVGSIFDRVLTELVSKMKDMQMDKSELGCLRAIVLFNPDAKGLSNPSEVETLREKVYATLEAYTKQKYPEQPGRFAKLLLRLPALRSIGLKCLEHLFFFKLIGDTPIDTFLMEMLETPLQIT
Put plainly: RXR reporter gene assay (luciferase) in COS-1 cells, RXRγ.

What is called pEC50 is −log10 of the EC50, conventionally taken in molar units. Read a high pEC50 as a low EC50. The Emax is the greatest response seen or fitted, relative to the assay's reference. For `CC1(C)CCC(C)(C)c2cc(N(CC3CC3)c3ncc(C(=O)O)cn3)ccc21` [PA024, reference compound], the “Retinoid synergistic activity BA(%)” value in assay [1] was 80%. Besides, the pEC50 on RXRβ is 7.62; on RXRγ it was 7.96. For the same compound, the Emax at 1 µM on RXRβ (COS-1, read-out: RXRβ Emax (%)) was determined as 100%; at RXRγ (COS-1, read-out: RXRγ Emax (%)), 100%.
